What was measured:
[1] = Functional plasma stability assay (remaining activity in CXCR4 antibody competition after incubation in plasma); assay type: in vitro ADME; conditions: whole human plasma, 37 °C; antibody competition read-out; at least three rounds of plasma incubation
Protocol: Figure 1 Half-lives of EPI-X4 WSC02 and EPI-X4 JM#21 in human plasma measured by a flow cytometry-based functional assay and mass spectrometry. For the functional assay, WSC02 (a) or JM#21 (b) were spiked into human plasma and incubated at 37 °C. At indicated time points, aliquots were taken and serially diluted in cold PBS. Then, plasma/peptide dilutions were added to CXCR4 expressing SupT1 cells together with a constant concentration of APC-conjugate ECL2-CXCR4 specific antibody 12G5. After 2 h, unbound antibody was removed, and cells were analyzed by flow cytometry. Remaining activity was determined described before. For detection by mass spectrometry, WSC02 (a) or JM#21 (b) were spiked into plasma and incubated at 37 °C. and analyzed in LC-MS/MS. Half-lives were calculated using a one-phase decay model in GraphPad Prism. Curve fits are shown as dashed lines. Data shown are derived from 3 individual rounds of plasma incubation ± SEM. […]
Competition of compounds with an APC-labeled antibody specific for ECL2 of CXCR4 (clone 12G5) was performed in SupT1 cells as described. […] After 2 h at 4 °C, unbound antibody was removed and cells analyzed in flow cytometry (CytoFLEX, Beckman Coulter). Mean fluorescence signals (MFI) in the presence of PBS only was set 100%. […] Half-maximal inhibitory concentrations (IC50) were calculated in GraphPad Prism by nonlinear regression. […]

[2] = due to interaction with FcRn; cited from earlier work
Description: HSA is a 585 amino acid residues long protein with concentrations ranging from 35 to 50 g/L in plasma. […] HSA carries 17 disulfide bridges and a single free Cys residue (Cys34). Cys34 is the ...

Row | Substance | activity over time in human plasma (in words) [1] | in vivo circulation half-life [2]
1 | HSA-JM#21: covalent HSA-EPI-X4 protein-peptide conjugate; JM#21 linked by maleimide-bis-sulfone reagent to the unpaired cysteine of HSA | activity remained constant over time | 
2 | HSA-WSC02: covalent HSA-EPI-X4 protein-peptide conjugate; WSC02 linked by maleimide-bis-sulfone reagent to the unpaired cysteine of HSA | activity remained constant over time | 
3 | HSA: 585 amino acid residues long plasma protein with a single free Cys residue (Cys34) |  | about three weeks

Source: PMC9735595, “Advanced EPI-X4 Derivatives Covalently Bind Human Serum Albumin Resulting in Prolonged Plasma Stability” (International Journal of Molecular Sciences, 2022)
